The target in the assay is T1, Tyrosine-protein kinase JAK3 (Homo sapiens, UniProt P52333).
T1 sequence (P52333 whole entry): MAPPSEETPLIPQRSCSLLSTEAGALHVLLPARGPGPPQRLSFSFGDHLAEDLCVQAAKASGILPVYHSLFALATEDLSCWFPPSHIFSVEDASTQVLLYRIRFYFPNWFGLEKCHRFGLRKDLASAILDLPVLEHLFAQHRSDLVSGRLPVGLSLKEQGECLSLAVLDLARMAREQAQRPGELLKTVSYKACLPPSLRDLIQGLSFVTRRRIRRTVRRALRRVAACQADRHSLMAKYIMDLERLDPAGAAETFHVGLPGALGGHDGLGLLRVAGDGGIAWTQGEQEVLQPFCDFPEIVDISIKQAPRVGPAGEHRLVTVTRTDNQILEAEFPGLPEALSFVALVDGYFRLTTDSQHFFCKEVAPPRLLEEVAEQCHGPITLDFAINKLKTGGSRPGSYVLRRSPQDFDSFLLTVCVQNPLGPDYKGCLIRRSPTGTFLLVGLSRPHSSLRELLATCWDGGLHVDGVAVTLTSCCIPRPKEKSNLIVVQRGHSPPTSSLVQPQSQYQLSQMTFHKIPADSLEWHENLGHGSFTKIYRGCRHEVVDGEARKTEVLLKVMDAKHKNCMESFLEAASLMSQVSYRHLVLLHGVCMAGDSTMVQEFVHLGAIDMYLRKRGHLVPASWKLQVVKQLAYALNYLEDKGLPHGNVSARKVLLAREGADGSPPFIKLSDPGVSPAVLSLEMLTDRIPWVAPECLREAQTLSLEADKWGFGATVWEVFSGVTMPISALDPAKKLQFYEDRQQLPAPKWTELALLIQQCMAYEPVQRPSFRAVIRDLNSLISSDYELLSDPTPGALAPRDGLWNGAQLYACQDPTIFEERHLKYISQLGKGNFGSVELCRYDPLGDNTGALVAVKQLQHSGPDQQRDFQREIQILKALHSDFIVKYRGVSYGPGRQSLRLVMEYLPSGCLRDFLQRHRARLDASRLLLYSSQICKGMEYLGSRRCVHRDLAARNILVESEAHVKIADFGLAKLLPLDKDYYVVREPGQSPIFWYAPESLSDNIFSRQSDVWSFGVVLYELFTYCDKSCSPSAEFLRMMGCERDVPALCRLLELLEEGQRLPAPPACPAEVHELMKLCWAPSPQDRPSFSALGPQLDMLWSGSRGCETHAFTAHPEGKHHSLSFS

Broadly, the IC50 is the concentration that inhibits the measured activity by half. In turn, `CN(c1ncnc2[nH]ccc12)[C@@H]1CCN(C(=O)CC#N)C1` showed an IC50 of 2.8 µM.

(Values after ChEMBL document CHEMBL4219073, “Development of selective inhibitors for the treatment of rheumatoid arthritis: (R)-3-(3-(Methyl(7H-pyrrolo[2,3-d]pyrimidin-4-yl)amino)pyrrolidin-1-yl)-3-oxopropanenitrile as a JAK1-selective inhibitor” (Bioorg Med Chem, 2018).)
